# According to patent US8772480B2, “Inhibitors of PI3 kinase and/or mTOR” (priority 2009, dated 2014):
# Molecular target: T1, mammalian target of rapamycin (mTOR) (Homo sapiens (Human), UniProt P42345)
# Experiment: not given
# Settings: read-out: mTOR IC50
row,SMILES,IC50 [µM]
1,"Cc1nc(N)nc(-c2cc(C(C)N3CCOCC3)cnc2Nc2cnc(Cl)c(NS(=O)(=O)N(C)C)c2)n1 (centres unmarked) [Example 370, N-(5-(3-(4-Amino-6-Methyl-1,3,5-Triazin-2-yl)-5-(1-Morpholinoethyl)Pyridin-2-Ylamino)-2-Chloropyridin-3-yl)-N,N-Dimethylaminosulfamide]",0.7
2,"Cc1nc(N)nc(-c2cc([C@@H](C)N3CCOCC3)cnc2Nc2cnc(Cl)c(NS(=O)(=O)N(C)C)c2)n1 [Example 373, (R)—N-(5-(3-(4-Amino-6-Methyl-1,3,5-Triazin-2-yl)-5-(1-Morpholinoethyl)Pyridin-2-Ylamino)-2-Chloropyridin-3-yl)-N,N-Dimethylaminosulfamide]",0.315
3,"Cc1nc(N)nc(-c2cc([C@H](C)N3CCOCC3)cnc2Nc2cnc(Cl)c(NS(=O)(=O)N(C)C)c2)n1 [Example 374, (S)—N-(5-(3-(4-Amino-6-Methyl-1,3,5-Triazin-2-yl)-5-(1-Morpholinoethyl)Pyridin-2-Ylamino)-2-Chloropyridin-3-yl)-N,N-Dimethylaminosulfamide]",0.388
4,"Cc1nc(N)cc(-c2cccnc2Nc2cnc(Cl)c(NS(=O)(=O)N(C)C)c2)n1 [Example 375, N-(5-(3-(6-Amino-2-Methylpyrimidin-4-yl)Pyridin-2-Ylamino)-2-Chloropyridin-3-yl)-N,N-Dimethylaminosulfamide]",3.3
5,"COCCOc1cnc(Nc2cnc(C)c(NS(C)(=O)=O)c2)c(-c2nc(C)nc(N)n2)c1 [Example 376, N-(5-(3-(4-Amino-6-Methyl-1,3,5-Triazin-2-yl)-5-(2-Methoxyethoxy)Pyridin-2-Ylamino)-2-Methylpyridin-3-yl)Methanesulfonamide]",1.94
6,"Cc1nc(N)nc(-c2cccnc2Nc2cnc(C)c(NS(C)(=O)=O)c2)n1 [Example 377, N-(5-(3-(4-Amino-6-Methyl-1,3,5-Triazin-2-yl)Pyridin-2-Ylamino)-2-Methylpyridin-3-yl)Methanesulfonamide]",> 10
7,"Cc1nc(N)nc(-c2cc(Cl)cnc2Nc2cnc(C)c(NS(C)(=O)=O)c2)n1 [Example 378, N-(5-(3-(4-Amino-6-Methyl-1,3,5-Triazin-2-yl)-5-Chloropyridin-2-Ylamino)-2-Methylpyridin-3-yl)Methanesulfonamide]",> 10
8,"C=Cc1cnc(Nc2cnc(Cl)c(NS(C)(=O)=O)c2)c(-c2cc(N)nc(C)n2)c1 [Example 380, N-(5-(3-(6-Amino-2-Methylpyrimidin-4-yl)-5-Vinylpyridin-2-Ylamino)-2-Chloropyridin-3-yl)Methanesulfonamide]",0.264
9,"COc1ncc(Nc2ncc(CN3CCN4C(CCS4(=O)=O)C3)cc2-c2nc(C)nc(N)n2)cc1F (centres unmarked) [Example 383, 4-(5-((1,1-Dioxidohexahydro-5H-Isothiazolo[2,3-A]Pyrazin-5-yl)Methyl)-2-((5-Fluoro-6-Methoxy-3-Pyridinyl)Amino)-3-Pyridinyl)-6-Methyl-1,3,5-Triazin-2-Amine]",> 10
10,"Cc1nc(N)nc(-c2cc(Cl)cnc2Nc2cnc(Cl)c(NS(=O)(=O)N(C)C)c2)n1 [Example 384, N′-(5-((3-(4-Amino-6-Methyl-1,3,5-Triazin-2-yl)-5-Chloro-2-Pyridinyl)Amino)-2-Chloro-3-Pyridinyl)-N,N-Dimethylsulfamide]",0.163

# Molecular target: T1, mammalian target of rapamycin (mTOR)
# Experiment: biochemical
# Settings: not given
row,SMILES,IC50 [µM]
1,"COc1ccc(Nc2ncc(CN3CCC(S(C)(=O)=O)C3)cc2-c2nc(C)nc(N)n2)cn1 (racemic) [Example 228, (RAC)-4-(2-(6-Methoxypyridin-3-Ylamino)-5-((3-(Methylsulfonyl)Pyrrolidin-1-yl)Methyl)Pyridin-3-yl)-6-Methyl-1,3,5-Triazin-2-Amine]",3.58
2,"COc1ncc(Nc2ncc(C(C)CO)cc2-c2nc(C)nc(N)n2)cc1F (single isomer, unassigned) [312 First eluting, 2-(5-(4-Amino-6-methyl-1,3,5-triazin-2-yl)-6-(5-fluoro-6-methoxypyridin-3-ylamino)pyridin-3-yl)propan-1-ol]",> 10
3,"COc1ccc(Nc2ncc(CNc3cccnc3)cc2-c2nc(C)nc3[nH]cnc23)cn1 [Example 79, N-(6-methoxypyridin-3-yl)-3-(2-methyl-9H-purin-6-yl)-5-((pyridin-3-ylamino)methyl)pyridin-2-amine]",> 10
4,"COc1ccc(Nc2ncc([C@@H](O)C(C)(C)C)cc2-c2nc(C)nc3c2ncn3C2CCCCO2)cn1 (stereo partly drawn) [Example 132, (1S)-1-(6-(6-Methoxypyridin-3-Ylamino)-5-(2-Methyl-9-(Tetrahydro-2H-Pyran-2-yl)-9H-Purin-6-yl)Pyridin-3-yl)-2,2-Dimethylpropan-1-ol]",0.129
5,"COc1ccc(Nc2ncc([C@H](O)C(C)(C)C)cc2-c2nc(C)nc3c2ncn3C2CCCCO2)cn1 (stereo partly drawn) [Example 133, (1R)-1-(6-(6-Methoxypyridin-3-Ylamino)-5-(2-Methyl-9-(Tetrahydro-2H-Pyran-2-yl)-9H-Purin-6-yl)Pyridin-3-yl)-2,2-Dimethylpropan-1-ol]",0.251
6,"Cc1nc(N)nc(-c2cc(CN3CCOCC3)cnc2Nc2cnc(Cl)c(NS(=O)(=O)N(C)C)c2)n1 [Example 333, N′-(5-((3-(4-Amino-6-Methyl-1,3,5-Triazin-2-yl)-5-(4-Morpholinylmethyl)-2-Pyridinyl)Amino)-2-Chloro-3-Pyridinyl)-N,N-Dimethylsulfamide]",0.523
7,"COc1ccc(Nc2ncc(CN3CCN(C(=O)N(C)C4CC4)CC3)cc2-c2nc(C)nc(N)n2)cn1 [Example 359, 4-((5-(4-Amino-6-Methyl-1,3,5-Triazin-2-yl)-6-(6-Methoxypyridin-3-Ylamino)Pyridin-3-yl)Methyl)-N-Cyclopropyl-N-Methylpiperazine-1-Carboxamide]",2.99
